Here are results for 1 substance from US20220273643A1, “METHOD OF TREATING KRAS-ASSOCIATED CANCERS” (THE REGENTS OF THE UNIVERSITY OF MICHIGAN, priority 2019, published 2022).

The test deals with UMSCC74B. Format: in vivo. The following applies: UMSCC74B tumor-bearing mice; DGD1202 30 mg/kg oral gavage; cetuximab 100 mg/kg (FIG. 1); P<0.001 for DGD1202. The procedure:
FIG. 1 depicts the effect of DGD1202 in mutant KRAS (and EGFR co-driven) head and neck (UMSCC74B) tumor model. KRAS driven UMSCC74B xenografts bearing nude mice were treated with vehicle, cetuximab (100 mg/kg, Monday), or DGD1202 (30 mg/kg, Mon-Fri) for 2 weeks and effect on tumor growth was measured and plotted.
Tumor-bearing mice were treated with DGD1202 via oral gavage in 30 mg/kg dose biweekly for one week. This dose was selected based on its single-dose PK profile.

Take “cetuximab: anti-EGFR antibody, a known EGFR inhibitor [reference compound]”: the tumor growth result is on record as “failed to exhibit meaningful efficacy”.
